Laboratory results: patent US9670201B2, “Methyl- and trifluoromethyl-substituted pyrrolopyridine modulators of RORC2 and methods of use thereof” (Pfizer Inc., priority 2014, dated 2017)

The molecules below were run on IL-17 production from human Th17 cells (assay: IL-17 production from human Th17 cells). Conditions: CD4+ T, 144 h.
Assay type: cell-based
`C[C@@H]1CCC[C@H]1C(=O)N1CCC(c2cn(C)c3ncc(NC(=O)c4cccc(C#N)c4)c(C(F)(F)F)c23)CC1` (racemic) [Example 26, Rac-3-cyano-N-(1-methyl-3-(1-((1S*,2S*)-2-methylcyclopentane-1-carbonyl)piperidin-4-yl)-4-(trifluoromethyl)-1H-pyrrolo[2,3-b]pyridin-5-yl)benzamide] showed an IC50 of 7.7 nM. Molecule `COc1ccc(C(=O)Nc2cnc3c(c(C4C5CC[C@H]4CN(C(=O)C(C)C)C5)cn3C)c2C(F)(F)F)cc1C#N` (stereo partly drawn) [Example 78, 3-cyano-N-(3-((1R,5S,8r)-3-isobutyryl-3-azabicyclo[3.2.1]octan-8-yl)-1-methyl-4-(trifluoromethyl)-1H-pyrrolo[2,3-b]pyridin-5-yl)-4-methoxybenzamide] has an IC50 of 4 nM. `Cc1c(NC(=O)c2cccc(C#N)c2)cnc2c1c(C1CCN(C(=O)[C@H]3C[C@H]4CC[C@@H]3C4)CC1)cn2C` [Example 35, N-(3-(1-((1R,2S,4S)-bicyclo[2.2.1]heptane-2-carbonyl)piperidin-4-yl)-1,4-dimethyl-1H-pyrrolo[2,3-b]pyridin-5-yl)-3-cyanobenzamide] was tested, and the IC50 was 14.3 nM. With `Cc1c(NC(=O)c2cccc(C#N)c2)cnc2c1c(C1CCN(C(=O)[C@@H]3C[C@@H]4CC[C@H]3C4)CC1)cn2C` [Example 36, N-(3-(1-((1S,2R,4R)-bicyclo[2.2.1]heptane-2-carbonyl)piperidin-4-yl)-1,4-dimethyl-1H-pyrrolo[2,3-b]pyridin-5-yl)-3-cyanobenzamide] the IC50 was 6.6 nM. Work on `C[C@@H]1CCC[C@@H]1C(=O)N1CCC(c2cn(C)c3ncc(NC(=O)c4cccc(C#N)c4)c(C(F)(F)F)c23)CC1` (racemic) [Example 27, Rac-3-cyano-N-(1-methyl-3-(1-((1R*,2S*)-2-methylcyclopentane-1-carbonyl)piperidin-4-yl)-4-(trifluoromethyl)-1H-pyrrolo[2,3-b]pyridin-5-yl)benzamide] yielded an IC50 of 8.4 nM. `Cc1c(NC(=O)c2cccc(C#N)c2)cnc2c1c(C1[C@@H]3CC[C@H]1CN(C(=O)C(C)C)C3)cn2C` (stereo partly drawn) [Example 98, 3-cyano-N-(3-((1R,5S,8r)-3-isobutyryl-3-azabicyclo[3.2.1]octan-8-yl)-1,4-dimethyl-1H-pyrrolo[2,3-b]pyridin-5-yl)benzamide] showed an IC50 of 276 nM. For `Cc1c(NC(=O)c2cccc(C#N)c2)cnc2c1c([C@@H]1CCN(C(=O)[C@H](C)C(F)(F)F)C[C@@H]1C)cn2C` [Example 89, 3-cyano-N-(1,4-dimethyl-3-((3R,4R)-3-methyl-1-((S)-3,3,3-trifluoro-2-methylpropanoyl)piperidin-4-yl)-1H-pyrrolo[2,3-b]pyridin-5-yl)benzamide], the IC50 was 16.6 nM.
